Experimental data taken from patent publication EP4825842A1, “DIVALENT BET DECOMPOSITION AGENT AND TARGETING MOLECULE-DRUG COMPLEX” (dated 2026).

Assays:
SU-DHL-4 cells [1] = test: Test Example 1: in vitro cell survival inhibitory effect of compound using SU-DHL-4 cell line; conditions: read-out: SU-DHL-4 IC50; 50% rate of inhibition of cell survival; 72 hours; Cell Counting Kit-8
Protocol: SU-DHL-4 cells (Code No. ACC 495, Deutsche Sammlung von Mikroorga nismen und Zellkulturen GmbH; DSMZ) were cultured in RPMI1640 medium (Code No. 11875-093, Thermo Fisher Scientific Inc.) supplemented with heat-inactivated fetal bovine serum (FBS: Code No. 10099-148, Thermo Fisher Scientific Inc.) in an amount that attained a final concentration of 10 vol% and a penicillin/streptomycin solution (PS: Code No. 15140-122, Thermo Fisher Scientific Inc.) in an amount that attained a final concentration of 1 vol% at 37°C using a CO2 incubator (95% air, 5% CO2). The cells were passaged at intervals of twice per week so as to maintain a cell density of 1 × 10 ^6 cells/mL or less in a volume of 20 to 40 mL.
The cultured SU-DHL-4 cells were seeded at 2000 cells/well to a transparent 384-well plate (Code No. 781182, Greiner bio-one). The cells thus seeded were precultured at 37°C for 18 to 25 hours in a CO2 incubator. Subsequently, a 1, 0.1, or 0.01 mmol/L solution of a test compound in DMSO was prepared, and nine serial dilutions were prepared at a dilution factor of √10 so as to attain 200 times the final concentration using the RPMI1640 medium containing FBS and PS, and added in a volume of 1/200 to each well. The final concentration of DMSO was set to 0.1 vol% for this preparation. The cells thus supplemented with the test compound were cultured at 37°C for 72 hours in a CO2 incubator. Subsequently, 0.020 mL of a solution of Cell Counting Kit-8 (Code No. CK04, Dojindo Laboratories) diluted 2-fold or 4-fold with phosphate-buffered saline (PBS) was added to each well. Color reaction was performed at 37°C for 2 to 3 hours in a CO2 incubator, followed by absorbance measurement at a wavelength of 450 nm using SpectraMax 340PC (Molecular Devices, LLC).

HIP-009 cells = test: Test Example 2: in vitro cell survival inhibitory effect of compound using nerve cell (HIP-009 cell); conditions: for Nerve selectivity: calculated from HIP-009 IC50 and SU-DHL-4 IC50; for IC50: read-out: HIP-009 IC50, 50% rate of inhibition of cell survival, differentiated nerve cells, 7 days, total area occupied by the cells
Protocol: HIP-009 cells (Code No. 23002-009, Hippocampal Neural Stem Cells, Cosmo Bio Co., Ltd.) were cultured in Neural Stem Cell Growth Media (Code No. 21001-250, Cosmo Bio Co., Ltd.) at 37°C for 2 to 4 weeks using a CO2 incubator (95% air, 5% CO2) until confluency with half-volume media exchanges once or twice per week, then allowed to differentiate in Neuro Transition Media (Code No. 21003-250, Cosmo Bio Co., Ltd.), and seeded at 5000 to 10000 cells/0.04 mL/well to a 384-well plate (Code No. 781091, Greiner bio-one) using Neural Differentiation media (Code No. 210040250, Cosmo Bio Co., Ltd.). Neurites were elongated with half-volume media exchanges once or twice per week. Each medium was supplemented with supplements as described in the instruction and used after being allowed to pass through a 0.22 µm filter. The cells were used in evaluation 3 weeks or later after seeding to the 384-well plate by confirming the elongated neurites.
In order to detach the cells, Trypsin (Code No. 41004-100, Cosmo Bio Co., Ltd.) was added thereto, and the mixture was incubated at 37°C for 3 to 10 minutes using a CO2 incubator (95% air, 5% CO2). Cell detachment reaction was stopped by the addition of Trypsin Inhibitor (Code No. 41005-100, Cosmo Bio Co., Ltd.) in an equal amount.
The 384-well plate was subjected to the following operation before cell seeding. A poly(ethylenimine) solution (Code No. 03880-100ML, Sigma-Aldrich Co., LLC) was diluted with 1 × Borate Buffer (dilution of Pierce 20 × Borate Buffer (Code No. 28341, Thermo Fisher Scientific Inc.)) to prepare a 0.07% poly(ethylenimine) solution, 0.02 mL of which was added to each well and incubated at 37°C for 1 hour. Then, the plate was washed twice with 0.1 mL of PBS and once with 0.1 mL of Otsuka distilled water and left standing overnight for drying. 0.02 mL of Laminin from Engelbreth-Holm-Swarm murine sarcoma basement membrane (Code No. L2020-1MG, Sigma-Aldrich Co., LLC) diluted into 0.0033 mg/mL with PBS was added to each well and incubated at 37°C for 1 hour. Laminin was sucked out, then 0.1 mL of Otsuka distilled water was added to the plate until just before seeding, and the plate was left standing.
The cells of day 0 were photographed using Cell3iMager duos (SCREEN Holdings Co., Ltd.) before addition of a test compound, and the total area occupied by the cells was calculated. Nine serial dilutions of the test compound (10000 mmol/L solution in DMSO) were prepared at a dilution factor of √10 so as to attain 5 times the final concentration using the Neural Differentiation Media, and added in a volume of 1/5 to each well. The final concentration of DMSO was set to 0.1 vol% for this preparation. The cells thus supplemented with the test compound were cultured at 37°C for 7 days in a CO2 incubator (95% air, 5% CO2). The cells of day 7 were photographed using Cell3iMager duos, and the total area occupied by the cells was calculated. […] Rate of inhibition of cell survival(%) = 100−A/B × 100 [formula] • A: Total area of the cells of day 7 • B: Total area of the cells of day 0
The results were as shown in the column "HIP-009 IC50 (nmol/L)" in Table 33 below. The selectivity of each compound for nerve cells was calculated according to the following formula using the results thus obtained and the results of Test Example 1. [formula]
Degree of improvement (vs. the comparative compound) = Neural selectivity of each compound / Neural selectivity of the comparative compound

SU-DHL-4 cells [2] = test: Test Example 4: in vivo drug efficacy evaluation of compound and ADC (SU-DHL-4 subcutaneous transplant); conditions: SCID mice with SU-DHL-4 tumor; 1 mg/kg body weight to the tail vein on day 1 and day 8; Figure 1
Protocol: SU-DHL-4 cells suspended in phosphate-buffered saline (PBS) containing 50 vol% Matrigel (Corning Inc.) were ventrally subcutaneously transplanted at 1 × 10^7 cells/0.1 mL/head to 5-week-old male SCID mice. Individuals having a tumor volume of 140 mm^3 or more were selected and grouped on 15 days after transplantation.
The day of grouping was defined as day 0, and diluted compound 1 was administered at 1 mg/kg body weight to the tail vein on day 1 and day 8. Diluted ADC-1 was administered at 3 mg/kg body weight to the tail vein on day 1. PBS containing 0.05 mg/mL polysorbate 80 was administered to a control group. Compound 1 was diluted with 4.29% Tween 80 (final proportions of DMSO and Tween 80: 30% and 3%, respectively). ADC-1 was diluted with PBS containing 0.05 mg/mL polysorbate 80. The tumor volumes and body weights of the mice were measured twice a week.

CCC(=O)N1c2ccccc2[C@H](Nc2ccc(NC(=O)CNC(=O)Nc3ccc(OCCN4CCN(C)C(=O)[C@H]4C)cc3)cc2)C[C@@H]1C
IC50 (SU-DHL-4 cells [1]): 0.061 nM | Nerve selectivity (HIP-009 cells): 2600 | Degree of improvement (vs. comparative compound) (HIP-009 cells; neural selectivity of each compound / neural selectivity of the comparative compound): 20 | IC50 (HIP-009 cells): 160 nM | antitumor activity (SU-DHL-4 cells [2]): strong antitumor activity

CCC(=O)N1c2ccc(F)cc2[C@H](Nc2ccc(NC(=O)CNC(=O)Nc3ccc(OCCN4CCN(C)C(=O)[C@H]4C)cc3)cc2)C[C@@H]1C (relative stereo)
IC50 (SU-DHL-4 cells [1]): 0.032 nM | Nerve selectivity (HIP-009 cells): 5800 | IC50 (HIP-009 cells): 190 nM

CCC(=O)N1c2ccccc2[C@H](Nc2ccc(NC(=O)CNC(=O)Nc3ccc(/C=C/CN4CCN(C)C(=O)[C@H]4C)cc3)cc2)C[C@@H]1C
IC50 (SU-DHL-4 cells [1]): 0.049 nM | Nerve selectivity (HIP-009 cells): 1000 | IC50 (HIP-009 cells): 50 nM

CCC(=O)N1c2ccccc2[C@H](Nc2ccc(NC(=O)CNC(=O)Nc3ccc(NC(=O)CN4CCN5C(=O)CC[C@H]5C4)cc3)cc2)C[C@@H]1C
IC50 (SU-DHL-4 cells [1]): 0.28 nM | Nerve selectivity (HIP-009 cells): 560 | IC50 (HIP-009 cells): 160 nM
